Like-named read-outs stand apart in the source and are kept apart here.
Biological target: TYK2 (Homo sapiens, UniProt P29597)
Test: TYK2 MSD degradation in OCI-LY10 cells
Conditions: for TYK2 MSD OCI-LY10 Dmax %: 4 to 24 hours incubation
Protocol: Example 7. TYK2 MSD Degradation
Degradation of TYK2 in cells was quantitatively measured using Meso Scale Discovery (MSD) technology. OCI-LY10 cells were seeded in 96-well plates with a density of 0.4 million cells per well in 100 μl fresh media. Compounds were then added to the assay plates with a final top concentration of 1 to 10 μM in a 1:3 dilution series with total of 9 doses. The assay plates were then incubated for 4 to 24 hours at 37° C. under […]. The assay plates were then centrifuged for 5 minutes, and the cell pellets were treated with 100 μl/well RIPA lysis buffer (Boston Bioproducts, BP-115D) with protease and phosphatase inhibitors (Roche, 05892791001 and 04906837001). To prepare MSD assay plates (MSD, L15XA), the plates were coated with the capture antibody (Santa Cruz Biotechnology, SC-5271) in PBS, at 40 μl/well. The plates were then incubated overnight at 4° C., washed 3 times with 150 μl/well TBST buffer (Cell Signaling Technology, 9997S) and blocked with 150 μl/well blocking buffer (MSD, R93BA-4). Cell lysates were then added to MSD assay plates and the plates were incubated at room temperature for 1 hour. The plates were then washed 3 times with 150 μl/well TBST buffer and 25 μl/well primary detection antibody (Cell Signaling Technology, #9312). The assay plates were then incubated at room temperature for 1 hour, washed 3 times with 150 μl/well TBST buffer, and 25 μl/well secondary detection antibody, SULFO-TAG anti-rabbit antibody (MSD, R32AB-1) were added. The assay plates were then incubated at room temperature for 1 hour, washed 3 times with 150 μl/well TB ST buffer, and 150 μl/well MSD reading buffer (MSD, R92TC-2) were added. The plates were then analyzed by an MSD reader. The data was analyzed by GraphPad Prism and the dose dependent TYK2 degradation was fit using the four-parameter inhibitor vs. response nonlinear regression.
The letter codes for TYK2 DC50 include: A (<1 nM); B (i to <10 nM); C (10 to 100 nM); D (>100 nM); and E (not tested). The letter codes for TYK2 Dmax % include: A (>90%); B (90 to >75%); C (75 to 50%); D (<50%); and E (not tested).

By UniProt entry, the sequences of proteins in these tests, tags left out.
UniProt P29597, whole entry: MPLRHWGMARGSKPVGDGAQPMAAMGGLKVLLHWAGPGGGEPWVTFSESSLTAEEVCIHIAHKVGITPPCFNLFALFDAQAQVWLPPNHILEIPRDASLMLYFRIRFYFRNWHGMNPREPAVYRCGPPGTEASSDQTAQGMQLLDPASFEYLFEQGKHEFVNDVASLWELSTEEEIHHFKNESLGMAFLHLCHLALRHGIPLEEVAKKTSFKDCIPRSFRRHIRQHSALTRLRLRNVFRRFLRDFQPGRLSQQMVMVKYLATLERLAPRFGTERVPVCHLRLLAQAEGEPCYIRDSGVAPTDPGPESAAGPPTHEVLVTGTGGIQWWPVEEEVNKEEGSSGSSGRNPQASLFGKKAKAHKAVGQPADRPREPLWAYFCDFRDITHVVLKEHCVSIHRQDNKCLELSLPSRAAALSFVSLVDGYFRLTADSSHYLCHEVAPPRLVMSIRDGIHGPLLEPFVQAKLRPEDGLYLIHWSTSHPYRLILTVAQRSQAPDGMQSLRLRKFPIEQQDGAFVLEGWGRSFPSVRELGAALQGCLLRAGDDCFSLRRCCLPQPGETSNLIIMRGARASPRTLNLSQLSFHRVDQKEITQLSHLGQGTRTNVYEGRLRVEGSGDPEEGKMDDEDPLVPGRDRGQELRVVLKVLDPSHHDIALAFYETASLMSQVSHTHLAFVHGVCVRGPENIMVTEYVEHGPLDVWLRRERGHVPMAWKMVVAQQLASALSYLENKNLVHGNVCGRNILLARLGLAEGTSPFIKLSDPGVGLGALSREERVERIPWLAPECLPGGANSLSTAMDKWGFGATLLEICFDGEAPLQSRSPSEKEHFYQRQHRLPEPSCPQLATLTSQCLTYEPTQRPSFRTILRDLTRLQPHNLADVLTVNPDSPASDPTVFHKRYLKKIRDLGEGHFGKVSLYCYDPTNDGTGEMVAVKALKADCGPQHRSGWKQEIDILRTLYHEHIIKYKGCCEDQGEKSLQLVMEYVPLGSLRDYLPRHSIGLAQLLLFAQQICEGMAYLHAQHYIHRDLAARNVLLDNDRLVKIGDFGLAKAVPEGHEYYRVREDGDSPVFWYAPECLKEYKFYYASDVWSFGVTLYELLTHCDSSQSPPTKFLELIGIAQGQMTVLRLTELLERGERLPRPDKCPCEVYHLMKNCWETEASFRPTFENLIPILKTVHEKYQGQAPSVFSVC

[1] = read-out: TYK2 MSD OCI-LY10 Rel-DC50, OCI-LY10 cells, 4 to 24 hours incubation
[2] = TYK2 degradation in OCI-LY10 cells
[3] = read-out: TYK2 MSD OCI-LY10 Rel-DC50, TYK2 degradation in OCI-LY10 cells, 4 to 24 hours incubation

Row | Compound | TYK2 MSD OCI-LY10 Dmax % (OCI-LY10 cells) | DC50 [1] [nM] | TYK2 MSD OCI-LY10 Dmax % [2] | DC50 [3] [nM]
1 | CNc1cc(N2CCc3c(N4CCN(CC5CCN(CCc6ccc(Cl)c(C7CCC(=O)NC7=O)c6)CC5)CC4)cccc32)nn2c(C(=O)N[C@@H]3C[C@@H]3F)cnc12 (some centres unmarked) | D (D (<50%)) | > 100 | – | –
2 | CNc1cc(N2CCc3c(N4CCC(CN5CCC(CN6CCN(C(=O)c7cc(N8CCC(=O)NC8=O)c(Cl)c(C)n7)CC6)C(F)(F)C5)CC4)cccc32)nn2c(C(=O)N[C@@H]3CC[C@H]3OC)cnc12 (some centres unmarked) | – | – | B (B (90 to >75%)) | < 1
3 | CNc1cc(N2CCc3c(C#CCN4CCN(C(=O)c5ccc(Cl)c(N6CCC(=O)NC6=O)c5)CC4)cccc32)nn2c(C(=O)N[C@@H]3C[C@@H]3F)cnc12 | – | – | C (C (75 to 50%)) | 10 to 100
4 | CNc1cc(N2CCc3c(CN4CCC(N5CCC6(CC5)CN(C(=O)c5cc(Cl)c(C)c(N7CCC(=O)NC7=O)c5)C6)C(F)(F)C4)cccc32)nn2c(C(=O)N[C@@H]3CC[C@H]3OC)cnc12 (some centres unmarked) | – | – | A (A (>90%)) | < 1
5 | CNc1cc(N2CCc3c(CN4CCC(N5CCC6(CCN(C(=O)c7cc(N8CCC(=O)NC8=O)c(Cl)cn7)CC6)CC5)C(F)(F)C4)cccc32)nn2c(C(=O)N[C@@H]3CC[C@H]3OC)cnc12 (some centres unmarked) | – | – | B (B (90 to >75%)) | < 1
6 | CNc1cc(N2CCc3c(N4CC[C@H](CN5CCN(c6ccc7c(c6)n(C)c(=O)n7C6CCC(=O)NC6=O)CC5)C4)cccc32)nn2c(C(=O)NC3CC3)cnc12 (some centres unmarked) | – | – | C (C (75 to 50%)) | < 1
7 | CNc1cc(N2CCc3c(CN4CC[C@H](N5CCC6(CCN(C(=O)c7cc(C)c(Cl)c(N8CCC(=O)NC8=O)c7)CC6)CC5)C(F)(F)C4)cccc32)nn2c(C(=O)N[C@@H]3CC[C@H]3OC)cnc12 | – | – | A (A (>90%)) | < 1
8 | CNc1cc(N2CCc3c(CN4CCC(N5CC(N6CCN(C(=O)c7ccc(Cl)c(N8CCC(=O)NC8=O)c7)CC6)C5)C(F)(F)C4)cccc32)nn2c(C(=O)N[C@@H]3C[C@@H]3F)cnc12 (some centres unmarked) | B (B (90 to >75%)) | < 1 | – | –
9 | CNc1cc(N2CCc3c(N4CCN(CC5CC6(CCN(Cc7ccc(C8CCC(=O)NC8=O)c(Cl)c7)CC6)C5)CC4)cccc32)nn2c(C(=O)N[C@@H]3C[C@@H]3F)cnc12 (some centres unmarked) | D (D (<50%)) | > 100 | – | –
10 | CNc1cc(N2CCc3c(CN4CC[C@@H](N5CCC6(CCN(C(=O)c7cc(Cl)c(C)c(N8CCC(=O)NC8=O)c7)CC6)CC5)C(F)(F)C4)cccc32)nn2c(C(=O)N[C@@H]3CC[C@H]3OC)cnc12 | – | – | A (A (>90%)) | < 1
11 | CNc1cc(N2CCc3c(-c4ccc(N5CC6(CCN(C(=O)c7ccc(Cl)c(N8CCC(=O)NC8=O)c7)CC6)C5)cn4)cccc32)nn2c(C(=O)N[C@@H]3C[C@@H]3F)cnc12 | D (D (<50%)) | < 10 | – | –
12 | CNc1cc(N2CCc3c(-c4ccc(N5CCC6(CC5)CN(C(=O)c5ccc(N7CCC(=O)NC7=O)c(Cl)c5)C6)cn4)cccc32)nn2c(C(=O)N[C@@H]3C[C@@H]3F)cnc12 | D (D (<50%)) | < 10 | – | –
13 | CNc1cc(N2CCc3c(CN4CC[C@H](N5CCC6(CCN(C(=O)c7cc(N8CCC(=O)NC8=O)c(Cl)cn7)CC6)CC5)C(F)(F)C4)cccc32)nn2c(C(=O)N[C@@H]3CC[C@H]3OC)cnc12 | – | – | A (A (>90%)) | < 1
14 | CNc1cc(N2CCc3c(-c4ccc(N5CCC6(CC5)CN(Cc5ccc(C7CCC(=O)NC7=O)c(Cl)c5)C6)cn4)cccc32)nn2c(C(=O)N[C@@H]3C[C@@H]3F)cnc12 (some centres unmarked) | D (D (<50%)) | < 10 | – | –
15 | CNc1cc(N2CCc3c(CN4CCC(N5CCC6(CCN(C(=O)c7cc(N8CCC(=O)NC8=O)c(Cl)cn7)CC6)CC5)C(F)(F)C4)cc(F)cc32)nn2c(C(=O)N[C@@H]3CC[C@H]3OC)cnc12 (some centres unmarked) | – | – | A (A (>90%)) | < 1
16 | CNc1cc(N2CCc3c(-c4ncc(CC5CC6(CCN(C(=O)c7cc(C)c(Cl)c(N8CCC(=O)NC8=O)c7)CC6)C5)cc4F)cccc32)nn2c(C(=O)N[C@@H]3CC[C@H]3OC)cnc12 | – | – | A (A (>90%)) | < 10
17 | CNc1cc(N2CCc3c(-c4ccc(N5CC6(CCN(C(=O)c7ccc(Cl)c(C8CCC(=O)NC8=O)c7)CC6)C5)cn4)cccc32)nn2c(C(=O)N[C@@H]3C[C@@H]3F)cnc12 (some centres unmarked) | D (D (<50%)) | < 10 | – | –

Row | Compound | TYK2 MSD OCI-LY10 Dmax % (OCI-LY10 cells) | DC50 [1] [nM] | TYK2 MSD OCI-LY10 Dmax % [2] | DC50 [3] [nM]
18 | CNc1cc(N2CCc3c(-c4ccc(CN5CCC6(CCN(C(=O)c7cc(N8CCC(=O)NC8=O)c(C)cc7Cl)CC6)C(F)(F)C5)cn4)cccc32)nn2c(C(=O)N[C@@H]3C[C@@H]3F)cnc12 | B (B (90 to >75%)) | < 10 | – | –
19 | CNc1cc(N2CCc3c(CN4CCC5(CCN(CC6CCN(C(=O)c7cc(N8CCC(=O)NC8=O)c(Cl)c(C)n7)CC6)CC5)C(F)(F)C4)cccc32)nn2c(C(=O)N[C@@H]3CC[C@H]3OC)cnc12 | – | – | B (B (90 to >75%)) | < 1
20 | CNc1cc(N2CCc3c(-c4ccc(CN5CCC6(CCN(C(=O)c7ccc(Cl)c(N8CCC(=O)NC8=O)c7)CC6)C(F)(F)C5)cn4)cc(F)cc32)nn2c(C(=O)N[C@@H]3C[C@@H]3F)cnc12 | B (B (90 to >75%)) | < 10 | – | –
21 | CCO[C@@H]1CC[C@H]1NC(=O)c1cnc2c(NC)cc(N3CCc4c(-c5ncc(CN6CC7(CCN(C(=O)c8cc(C)c(Cl)c(N9CCC(=O)NC9=O)c8)CC7(F)F)C6)cc5F)cccc43)nn12 | – | – | B (B (90 to >75%)) | < 1
22 | COC1(c2cc(C)cc(-c3cn(CCC4CCN(CC5CCN(c6ccc7c(c6)n(C)c(=O)n7C6CCC(=O)NC6=O)CC5)CC4)c4cnc(NC(C)=O)cc34)n2)CCOC1 (centres unmarked) | – | – | B (B (90 to >75%)) | < 1
23 | CNc1cc(N2CCc3c(-c4ncc(CN5CC6(CCN(C(=O)c7cc(N8CCC(=O)NC8=O)c(OC)cc7Cl)CC6(F)F)C5)cc4F)cccc32)nn2c(C(=O)N[C@@H]3CC[C@H]3OC)cnc12 | – | – | A (A (>90%)) | < 1
24 | CO[C@@]1(c2cc(C)cc(-c3cn(C4CCN(CC5CCN(c6ccc7c(c6)n(C)c(=O)n7C6CCC(=O)NC6=O)CC5)CC4)c4cnc(NC(C)=O)cc34)n2)CCOC1 (some centres unmarked) | – | – | C (C (75 to 50%)) | < 1
25 | CO[C@@]1(c2cc(C)cc(-c3cn(C4CCN(C(=O)CCCCc5ccc6c(c5)n(C)c(=O)n6C5CCC(=O)NC5=O)CC4)c4cnc(NC(C)=O)cc34)n2)CCOC1 (some centres unmarked) | – | – | D (D (<50%)) | > 100
26 | CNc1cc(N2CCc3cc(CN4CC5(CCN(C(=O)c6ccc(Cl)c(N7CCC(=O)NC7=O)c6)CC5)C4)ccc32)nn2c(C(=O)N[C@@H]3C[C@@H]3F)cnc12 | D (D (<50%)) | > 100 | – | –
27 | CNc1cc(N2CCc3c(-c4ncc(CN5CC6(CCN(C(=O)c7cc(Cl)c(C)c(N8CCC(=O)NC8=O)c7)CC6(F)F)C5)cc4F)cccc32)nn2c(C(=O)N[C@@H]3CC[C@H]3F)cnc12 | – | – | A (A (>90%)) | < 1
28 | CNc1cc(N2CCc3c(-c4ccc(CN5CC6(CCN(C(=O)c7cc(N8CCC(=O)NC8=O)c(C)cn7)CC6(F)F)C5)cn4)cccc32)nn2c(C(=O)N[C@@H]3CC[C@H]3OC)cnc12 | – | – | A (A (>90%)) | < 1
29 | CNc1cc(N2CCc3c(CN4CCC(CN5CCC6(CC5)CCN(C(=O)c5cc(Cl)c(C)c(N7CCC(=O)NC7=O)c5)CC6)C(F)(F)C4)cccc32)nn2c(C(=O)N[C@@H]3CC[C@H]3OC)cnc12 (some centres unmarked) | – | – | A (A (>90%)) | < 1
30 | CNc1cc(N2CCc3c(-c4ccc(OCCC5CCN(C(=O)c6ccc(Cl)c(N7CCC(=O)NC7=O)c6)CC5)cn4)cccc32)nn2c(C(=O)N[C@@H]3C[C@@H]3F)cnc12 [I-617] | – | – | C (C (75 to 50%)) | < 10
31 | CNc1cc(N2CCc3c(CN4CCC5(CCN(CC6CCN(C(=O)c7cc(Cl)c(C)c(N8CCC(=O)NC8=O)c7)CC6)CC5)C(F)(F)C4)cccc32)nn2c(C(=O)N[C@@H]3CC[C@H]3OC)cnc12 | – | – | A (A (>90%)) | < 1
32 | CCNC(=O)c1nnc(Nc2ccc(CN3CCC4(CN(c5cc(F)cc(NC6CCC(=O)NC6=O)c5)C4)C(F)(F)C3)cn2)cc1Nc1cccc(F)c1OC (centres unmarked) | – | – | D (D (<50%)) | > 100
33 | CNc1cc(N2CCc3c([C@H]4CCN(CC5CCN(c6ccc7c(c6)n(C)c(=O)n7C6CCC(=O)NC6=O)CC5)C4)cccc32)nn2c(C(=O)NC3CC3)cnc12 (some centres unmarked) | – | – | C (C (75 to 50%)) | < 1
34 | CNc1cc(N2CCc3c(-c4ccc(CN5CCC6(CC5)CC(Oc5ccc(Cl)c(N7CCC(=O)NC7=O)c5)C6)cn4)cccc32)nn2c(C(=O)N[C@@H]3C[C@@H]3F)cnc12 | – | – | C (C (75 to 50%)) | < 1

— patent US20260125400A1, “TYK2 DEGRADERS AND USES THEREOF” (Kymera Therapeutics, Inc., priority 2023, published 2026)
